Here are results for 1 compound from patent US6696431B2, “26,27-homologated-20-EPI-2-alkylidene-19-nor-vitamin D compounds” (Wisconsin Alumni Research Foundation, priority 1997, dated 2004).

For the experiment, the system named is HL-60 cells. The experiment is described as follows: Differentiation of HL-60 promyelocytes to monocytes (NBT reduction). Format: cell-based. The settings on record: ratio of analog ED50 to ED50 for 1α,25-(OH)2D3. As for the experimental part: The differentiation of HL-60 promyelocytic into monocytes was determined as described by Ostrem et al (J. Biol. Chem. 262, 14164-14171, 1987).
The differentiation of HL-60 promyleocytic into monocytes was determined as described by Ostrem et al (J. Biol. Chem. 262, 14164-14171, 1987).

SMILES strings stand for the structures.

Take `C=C1/C(=C\C=C2/CCC[C@]3(C)[C@@H]([C@H](C)CCCC(C)(C)O)CC[C@@H]23)C[C@@H](O)C[C@@H]1O` [1,25-(OH)2D3, 1α,25-dihydroxyvitamin D3, reference compound]: the “HL-60 Differentiation Activity ratio” value stood at 1.
